The source of these data is ChEMBL document CHEMBL2412971, “Selective orexin receptor antagonists” (Bioorg Med Chem Lett, 2013).

Sequences of proteins named here, by UniProt entry; tags and fusion partners are left off.
UniProt O43614, whole entry: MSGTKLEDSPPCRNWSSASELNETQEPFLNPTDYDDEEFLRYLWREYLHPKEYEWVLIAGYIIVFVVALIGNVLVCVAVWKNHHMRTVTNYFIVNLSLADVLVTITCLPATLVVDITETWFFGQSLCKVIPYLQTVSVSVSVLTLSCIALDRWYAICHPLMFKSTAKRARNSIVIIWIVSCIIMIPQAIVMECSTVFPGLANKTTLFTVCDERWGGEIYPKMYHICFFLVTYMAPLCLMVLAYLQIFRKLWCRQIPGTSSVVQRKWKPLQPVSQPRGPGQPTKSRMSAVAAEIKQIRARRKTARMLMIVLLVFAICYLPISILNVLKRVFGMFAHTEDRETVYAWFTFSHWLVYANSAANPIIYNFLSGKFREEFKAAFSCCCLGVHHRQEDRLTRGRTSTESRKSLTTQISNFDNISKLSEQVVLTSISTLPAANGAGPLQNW

The target of the test is Orexin receptor type 2 (Homo sapiens, UniProt O43614). The test is described as follows: Binding affinity to orexin receptor 2 (unknown origin).

Compound `COc1ccc(C[C@H]2c3cc(OC)c(OC)cc3CCN2[C@@H](C(=O)NC(C)C)c2ccccc2)cc1OC` gave a half-maximal inhibitory concentration (IC50) of 0.417 µM.

A word on the IC50: it is the midpoint of a concentration-inhibition curve. A lower IC50 goes with inhibition by little substance.
